The numbers were not newly measured in paper PMC3634732, “Chemical Chaperones Exceed the Chaperone Effects of RIC-3 in Promoting Assembly of Functional α7 AChRs” (PLoS ONE, 2013), which cites them from elsewhere.

The structures appear in SMILES notation. Read-outs that look alike come from different tables or passages of the source.

A word on the EC50: it is the concentration that produces a half-maximal response.

The test system of the series is mouse α7 AChRs. The note with it: cited from earlier work.

In the case of `CC(=O)OCC[N+](C)(C)C` [ACh], the EC50 is, setting by setting: (net charge) 13.3 µM; (peak current values) 450 µM.
